Reference: patent US6521594 (LA JOLLA CANCER RESEARCH FOUNDATION, dated 2003)

By UniProt entry, the sequences of proteins in these tests, tags left out. Residues count along the entry.
Platelet glycoprotein IIb/IIIa, UniProt P05106, 27-788, chain 2 of 2: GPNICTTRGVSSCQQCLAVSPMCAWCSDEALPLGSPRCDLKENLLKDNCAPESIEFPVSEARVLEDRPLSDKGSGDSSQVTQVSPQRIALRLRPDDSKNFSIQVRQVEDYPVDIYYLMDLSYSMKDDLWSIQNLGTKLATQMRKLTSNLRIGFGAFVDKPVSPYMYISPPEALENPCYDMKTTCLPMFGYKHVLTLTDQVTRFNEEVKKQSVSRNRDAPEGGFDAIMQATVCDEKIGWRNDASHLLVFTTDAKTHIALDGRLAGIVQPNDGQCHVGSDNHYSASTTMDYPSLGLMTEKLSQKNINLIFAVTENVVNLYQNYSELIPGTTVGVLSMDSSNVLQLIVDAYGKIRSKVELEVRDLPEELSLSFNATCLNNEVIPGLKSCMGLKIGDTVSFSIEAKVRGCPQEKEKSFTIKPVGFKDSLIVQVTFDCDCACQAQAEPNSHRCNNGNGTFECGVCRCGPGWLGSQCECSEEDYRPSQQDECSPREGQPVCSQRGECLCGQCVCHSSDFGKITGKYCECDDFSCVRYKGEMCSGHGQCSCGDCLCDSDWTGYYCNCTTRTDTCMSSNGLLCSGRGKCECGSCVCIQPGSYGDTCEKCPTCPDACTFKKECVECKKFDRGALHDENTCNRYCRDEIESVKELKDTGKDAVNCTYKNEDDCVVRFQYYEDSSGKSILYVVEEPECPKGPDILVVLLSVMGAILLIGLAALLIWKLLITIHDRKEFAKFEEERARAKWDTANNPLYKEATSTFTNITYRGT
UniProt P06756, 31-1048, chain 1 of 2: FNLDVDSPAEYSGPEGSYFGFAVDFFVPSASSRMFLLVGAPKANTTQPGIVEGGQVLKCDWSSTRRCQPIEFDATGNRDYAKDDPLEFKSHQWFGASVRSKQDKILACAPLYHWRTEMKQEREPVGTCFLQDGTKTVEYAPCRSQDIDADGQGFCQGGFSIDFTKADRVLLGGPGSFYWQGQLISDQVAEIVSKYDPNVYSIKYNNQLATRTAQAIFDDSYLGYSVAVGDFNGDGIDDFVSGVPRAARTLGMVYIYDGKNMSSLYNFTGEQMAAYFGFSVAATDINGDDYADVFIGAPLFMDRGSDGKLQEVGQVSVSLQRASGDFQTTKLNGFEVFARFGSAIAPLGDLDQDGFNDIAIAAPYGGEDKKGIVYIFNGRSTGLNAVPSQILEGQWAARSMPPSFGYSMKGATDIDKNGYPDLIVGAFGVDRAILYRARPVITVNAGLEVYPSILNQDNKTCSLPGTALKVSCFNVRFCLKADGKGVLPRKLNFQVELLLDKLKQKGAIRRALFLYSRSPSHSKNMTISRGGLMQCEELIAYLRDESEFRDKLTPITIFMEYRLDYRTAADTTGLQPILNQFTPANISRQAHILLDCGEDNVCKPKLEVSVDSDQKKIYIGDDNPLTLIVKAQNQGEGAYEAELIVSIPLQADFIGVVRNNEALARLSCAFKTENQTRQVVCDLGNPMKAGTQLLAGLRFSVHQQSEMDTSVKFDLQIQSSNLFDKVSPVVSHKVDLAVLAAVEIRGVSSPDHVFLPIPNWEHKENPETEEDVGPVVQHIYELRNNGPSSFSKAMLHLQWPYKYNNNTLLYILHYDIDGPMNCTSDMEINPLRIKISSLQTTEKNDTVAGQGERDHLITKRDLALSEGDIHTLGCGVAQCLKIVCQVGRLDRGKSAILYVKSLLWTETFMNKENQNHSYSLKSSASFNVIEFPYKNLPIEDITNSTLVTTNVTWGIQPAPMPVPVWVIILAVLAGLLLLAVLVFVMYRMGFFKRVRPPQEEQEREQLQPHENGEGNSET
UniProt P08648, 42-1049, chain 1 of 2: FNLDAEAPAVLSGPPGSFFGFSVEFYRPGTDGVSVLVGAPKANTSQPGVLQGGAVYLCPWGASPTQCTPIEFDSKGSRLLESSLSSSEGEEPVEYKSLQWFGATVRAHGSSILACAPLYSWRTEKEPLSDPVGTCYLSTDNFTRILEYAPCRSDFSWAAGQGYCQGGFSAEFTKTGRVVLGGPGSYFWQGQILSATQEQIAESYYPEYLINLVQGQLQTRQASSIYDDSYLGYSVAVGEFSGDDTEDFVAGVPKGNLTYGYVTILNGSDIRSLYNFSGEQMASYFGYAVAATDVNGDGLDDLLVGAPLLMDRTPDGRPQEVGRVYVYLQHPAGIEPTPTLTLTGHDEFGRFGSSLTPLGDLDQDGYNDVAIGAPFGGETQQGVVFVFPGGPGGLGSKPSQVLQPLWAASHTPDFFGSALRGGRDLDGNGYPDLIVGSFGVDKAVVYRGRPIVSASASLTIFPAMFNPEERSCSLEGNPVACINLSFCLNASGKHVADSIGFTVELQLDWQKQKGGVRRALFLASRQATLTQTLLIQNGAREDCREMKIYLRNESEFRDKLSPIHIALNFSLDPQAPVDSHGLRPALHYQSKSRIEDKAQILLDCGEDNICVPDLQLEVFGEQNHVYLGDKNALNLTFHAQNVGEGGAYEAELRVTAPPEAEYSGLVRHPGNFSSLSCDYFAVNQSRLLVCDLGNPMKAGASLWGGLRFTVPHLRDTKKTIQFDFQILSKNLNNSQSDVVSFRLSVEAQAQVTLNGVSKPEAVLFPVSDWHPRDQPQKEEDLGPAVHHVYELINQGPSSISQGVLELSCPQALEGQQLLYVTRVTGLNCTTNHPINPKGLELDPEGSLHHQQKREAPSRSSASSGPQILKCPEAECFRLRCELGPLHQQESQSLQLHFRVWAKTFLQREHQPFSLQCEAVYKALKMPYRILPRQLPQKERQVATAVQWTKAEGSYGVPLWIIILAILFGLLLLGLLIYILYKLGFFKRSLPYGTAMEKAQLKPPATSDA

Tests used:
[1] = target: T1, Platelet glycoprotein IIb/IIIa (human, UniProt P08514 32-1039; P05106 27-788); experiment: competitive ELISA vWF/IIbIIIa
T1 construct: mature; on human platelets in the aggregation assays (functional rows); also called GP IIb/IIIa; GPIIbIIIa

Vitronectin receptor [2] = target: T2, Vitronectin receptor (human, UniProt P06756 31-1048; P05106 27-788); experiment: competitive ELISA Vn/VnR
T2 construct: mature; also called Vn-R; VnR

[3] = target: T1, Platelet glycoprotein IIb/IIIa; experiment: competitive ELISA Fg/IIbIIIa
[4] = target: T1, Platelet glycoprotein IIb/IIIa; experiment: cell-based or functional assay
[5] = target: T1, Platelet glycoprotein IIb/IIIa; experiment: cell-based or functional assay; remark: listed apart in the source
[6] = target: T1, Platelet glycoprotein IIb/IIIa; experiment: competition, ELISA or liposome assay
Vitronectin receptor [7] = target: T2, Vitronectin receptor; experiment: competition, ELISA or liposome assay, vitronectin coated
Fibronectin receptor = target: T3, Fibronectin receptor (human, UniProt P08648 42-1049; P05556 21-798); experiment: competitive ELISA, fibronectin coated
T3 construct: mature; Purified on a 110 kd fibronectin fragment column; also called Fn-R; FnR

B1: Ac-CNPRGD(Y-OMe)(dR)C-NH2 (peptide)
peptide: CNPRGDXXC
modifications: N-terminal acetyl; O-Me-Tyr at 7; D-Arg at 8; C-terminal amide
notes: also called 11L
[1]
  IC50: 640 nM
Vitronectin receptor [2]
  IC50: 1820 nM
[3]
  IC50: 932 nM
[4]
  IC50 (µM) Human Platelet Aggregation: 7.3 µM

B2: R(Pmc)GHRGD(O-Me-Tyr)RCR (peptide)
peptide: RXGHRGDXRCR
modifications: not fully specified; Pmc at 2; O-Me-Tyr at 8
notes: also called R(Pmc)GHRGD(Y-OMe)RCR; 5O
[1]
  IC50: 15.7 nM
[5]
  IC50, ADP-Stimulated Aggregation: 830 nM
[4]
  IC50 (µM) Human Platelet Aggregation: 0.56 µM

B3: R(Pmc)GHRGD(p-nitro-Phe)RCR (peptide)
peptide: RXGHRGDXRCR
modifications: Pmc at 2; p-nitro-Phe at 8
notes: also called 7T; R(Pmc)GHRGD(p-NO2-F)RCR
[6]
  IC50: 23 nM
[5]
  IC50, ADP-Stimulated Aggregation: 380 nM
[4]
  IC50 (µM) Human Platelet Aggregation: 0.38 µM

B4: Ac(dPen)NPRGD(O-Me-Tyr)RC-NH2 (peptide)
peptide: XNPRGDXRC
modifications: N-terminal acetyl; D-Pen at 1; O-Me-Tyr at 7; C-terminal amide
notes: also called 10X; Ac(dPen)NPRGDY-OMeRCNH2
[5]
  IC50, ADP-Stimulated Aggregation: 170 nM
[4]
  IC50 (µM) Human Platelet Aggregation: 0.17 µM

B5: R(Pen)GHRGD(Cha)RCR (peptide)
peptide: RXGHRGDXRCR
modifications: Pen at 2; Cha at 8
[5]
  IC50, ADP-Stimulated Aggregation: 4100 nM

B6: R(Pen)GHRGD(1-Nal)RCR (peptide)
peptide: RXGHRGDXRCR
modifications: Pen at 2; 1-Nal at 8
[5]
  IC50, ADP-Stimulated Aggregation: 29000 nM

B7: R(am-Pmp)GHRGD(TyrMe)RCR (peptide)
peptide: RXGHRGDXRCR
modifications: am-Pmp (Pmc) at 2; TyrMe at 8
[6]
  IC50: 18 nM
[5]
  IC50, ADP-Stimulated Aggregation: 450 nM

B8: R(Pmc)GHRGD(O-n-hexyl-Tyr)RCR (peptide)
peptide: RXGHRGDXRCR
modifications: Pmc at 2; O-n-hexyl-Tyr at 8
[5]
  IC50, ADP-Stimulated Aggregation: 960 nM

B9: R(Pmc)GHRGD(3,5-diiodo-Tyr)RCR (peptide)
peptide: RXGHRGDXRCR
modifications: Pmc at 2; 3,5-diiodo-Tyr at 8
[6]
  IC50: 13 nM
[5]
  IC50, ADP-Stimulated Aggregation: 1100 nM

B10: R(Pmc)GHRGD(O-n-butyl-Tyr)RCR (peptide)
peptide: RXGHRGDXRCR
modifications: Pmc at 2; O-n-butyl-Tyr at 8
Vitronectin receptor [7]
  IC50: 2200 nM
[6]
  IC50: 28 nM
[5]
  IC50, ADP-Stimulated Aggregation: 350 nM

B11: R(dPen)GHRGD(p-iodo-Phe)RCR (peptide)
peptide: RXGHRGDXRCR
modifications: D-Pen at 2; p-iodo-Phe at 8
[6]
  IC50: 23 nM
[5]
  IC50, ADP-Stimulated Aggregation: 780 nM

B12: R(Pmc)GHRGD(p-amino-Phe)RCR (peptide)
peptide: RXGHRGDXRCR
modifications: Pmc at 2; p-amino-Phe at 8
[6]
  IC50: 340 nM

B13: AcCNPRGD(O-Me-Tyr)RC-NH2 (peptide)
peptide: CNPRGDXRC
modifications: N-terminal acetyl; O-Me-Tyr at 7; C-terminal amide
notes: also called 8X; 8×
Vitronectin receptor [7]
  IC50: 4700 nM
[1]
  IC50: 14.8 nM
Vitronectin receptor [2]
  IC50: 4700 nM
[3]
  IC50: 8.7 nM

B14: GRGDSPDG (peptide)
peptide: GRGDSPDG
notes: also called 2H
[6]
  IC50: 250 nM

B15: YRGDSPDG (peptide)
peptide: YRGDSPDG
Fibronectin receptor
  IC50: 1100 nM

B16: R9GDS (peptide)
peptide: RRRRRRRRRGDS
notes: R9 read as nine Arg; this reading is not confirmed by the text
Fibronectin receptor
  IC50: 640 nM

B17: Ac-CNPRGD(Y-OMe)OC-NH2 (peptide)
peptide: CNPRGDXXC
modifications: N-terminal acetyl; O-Me-Tyr at 7; 'O' at 8 as printed (letter not explained, presumably Orn); C-terminal amide
notes: also called 11P
[1]
  IC50: 9.9 nM
Vitronectin receptor [2]
  IC50: 63.5 nM
[3]
  IC50: 44.5 nM

B18: Ac-CNPRGD(Y-OMe)(Cit)C-NH2 (peptide)
peptide: CNPRGDXXC
modifications: N-terminal acetyl; O-Me-Tyr at 7; Cit at 8; C-terminal amide
notes: also called 11S
[1]
  IC50: 27.1 nM
Vitronectin receptor [2]
  IC50: 891 nM
[3]
  IC50: 102 nM

B19: Ac-CNPRGD(Y-OMe)(Nle)C-NH2 (peptide)
peptide: CNPRGDXXC
modifications: N-terminal acetyl; O-Me-Tyr at 7; Nle at 8; C-terminal amide
notes: also called 11V
[1]
  IC50: 18.6 nM
Vitronectin receptor [2]
  IC50: 108 nM
[3]
  IC50: 15.2 nM

B20: R(Pmc)GHRGD(p-I-F)RCR (peptide)
peptide: RXGHRGDXRCR
modifications: Pmc at 2; p-iodo-Phe at 8
notes: also called 7B
[1]
  IC50: 11.8 nM

B21: GRGDSP (peptide)
peptide: GRGDSP
notes: also called prototype linear peptide
Fibronectin receptor
  IC50: 32 nM

B22: R(Pmc)GHRGD(Hpa)RCR (peptide)
peptide: RXGHRGDXRCR
modifications: Pmc at 2; Hpa at 8
Vitronectin receptor [7]
  IC50: 4200 nM

B23: G(Pen)GRGDSPCA (peptide)
peptide: GXGRGDSPCA
modifications: Pen at 2
notes: cyclic
Vitronectin receptor [7]
  IC50: 150 nM
[6]
  IC50: 290 nM

B24: R(Pmc)GHRGDFRCR (peptide)
peptide: RXGHRGDFRCR
modifications: Pmc at 2
[6]
  IC50: 43 nM

B25: R(Pmc)GHRGD(Phg)RCR (peptide)
peptide: RXGHRGDXRCR
modifications: Pmc at 2; Phg at 8
Vitronectin receptor [7]
  IC50: 790 nM
[6]
  IC50: 23 nM
